Assay results from patent publication US7718768B2, “Biologically active peptide [sequence]” (CMS Peptides Patent Holding Company Limited, priority 2001, dated 2010).

Assays:
anti-SRBC antibody = assay: Sheep Red Blood Cell (SRBC) hemolysis test, anti-SRBC antibody formation; format: in vivo, BALB/c mice; settings: SRBC on day 12, IFN-γ and IL-2 groups 3×10^5 IU/kg/day, X ± SD
Description: Sheep red blood cells (SRBC) were prepared by collecting blood from cervical vein and put into a sterile flask with glass beads. The flask was shaken for 3 minutes and the blood then mixed with Alsever solution (glucose 2.05 g, NaCl 0.4 g, […] 0.8 g, adjust to 100 ml with distilled water) and stored at 4° C. Immediately before use, samples were centrifuged at 130 g, 5 minutes to collect the SRBC. The cells were washed two times by re-suspension and centrifugation in normal saline. Then the cell pellet was collected by centrifugation at 180 g for 10 minutes and re-suspended in saline to make the final working SRBC suspension, 2% (v/v).
Complement was prepared by adding 10 volumes of fresh Cavy serum into one volume centrifuge packed SRBC, and then gently shaking for 30 minutes at 4° C. The SRBC was removed by centrifugation at 200 g for 10 minutes. 10 volumes of normal saline were added to obtain the working complement solution.
The BALB/c mice were randomly divided into the peptide group, IFN group, IL-2 group, and saline group, 10 mice per group. The test substances were administered as described in section 1.1, plus intraperitoneal injection 0.2 ml SRBC per mouse on day 12. On the day after the last test substance administration (day 16), blood was collected from the eye canthus and left at room temperature for one hour for serum exudation. After centrifugation at 200 g for 10 minutes, the serum was diluted by 500 times with normal saline.
To 1 ml diluted mouse serum of each mouse, 0.5 ml SRBC suspension was added. Ice cold. Then 1 ml working complement solution was added and incubated at 37° C. water bath for 10 minutes. Reactions were terminated by ice cold. Samples were then centrifuged at 200 g for 10 minutes to obtain the supernatant.
To 1 ml of this supernatant, 3 ml Drabkin solution was added and left at room temperature for 10 minutes. OD540nm was obtained.
Reference OD540nm was obtained by mixing 0.25 ml SRBC suspension with Drabkin solution to 4 ml and placed at room temperature for 10 minutes before OD540nm was taken. Sample serum index=(OD540nm of test sample[…]reference OD540nm)×500 3. The Effect of Peptides on the Phagocytosis Function of Mononuclear Phagocyte and the Weight of Immune Organ^[8,9].

T lymphocyte = T lymphocyte transformation in mice with ascitic fluid type liver cancer H22; format: in vivo, BALB/c mice; settings: 3 × 10^5 IU/kg i.p. once per day
Description: Healthy BALB/c mice were randomized into peptide group, rmIFN-γ group, rhIL-2 group, and saline group, 15 mice per group, and prepared into H22 carrying mice model as described in section Method 3. After implantation of the cancer cells, the test substances were administered for 15 days, the mice were killed by cervical dislocation. The spleen was isolated aseptically and manually dispersed in cold D-Hank's solution using an injection needle. The dispersed cell suspension was further sieved through a 100-gauge 150 μm diameter stainless steel sieve. After centrifugation at 200 g for 10 minutes, the supernatant was discarded. The cell pellet was re-suspended in 10 volume of Tris-NH4Cl buffer and then kept standing still for 10 minutes at room temperature. The suspended cells were collected by centrifugation at 150 g for 10 minutes. The cells were washed 2-4 times with cold D-Hank's solution by re-suspending and collecting by centrifugation with condition as described above. The washed cells were then diluted to the desired cell densities by RPMI-1640 culture medium, containing 10% fetal bovine serum. […]
50 μl/well MTT of 1 mg/ml in RPMI-1640 was added to the cell pellet and the cells re-suspended by shaking for 2 minutes. […] Use an ELISA reader to obtain OD570nm of each well referenced at 630 nm. […]

L1210 leukemia = assay: survival of mice with transplanted L1210 leukemia; format: in vivo, DBA/2 mice; settings: 3 × 10^5 IU/kg i.p. once per day
Description: Intraperitoneal injection, once per day. […] The cyclophosphamide groups were treated on the next day after transplanting the cancer cells. Treatment of all groups with testing substance lasted for 30 days or until the animal died unless otherwise specified.
Stock L1210 cells were incubated in DMEM/F12 medium supplemented with 10% fetal bovine serum, 37° C./5% CO2 for 72 hrs, then washed 3-4 times with Hank's solution, and adjusted to 1×10^5 cells per liter. 0.1 ml of the cell suspension was implanted into the abdominal cavity of several healthy DBA mice for 6-8 days. The mice were then killed by cervical vertebra dislocation and their ascitic fluid collected aseptically. The cell concentration of the collected ascitic fluid was adjusted to 1×10^5 per ml with Hank's solution. 0.1 ml of the cell suspension was implanted into each of the testing animal and the survival data of the animals recorded. Treatment started in the testing animals as described in section Method 1. Mean survival day was obtained by the Kaplan-meier method in the Survival option of the SPSS software. If the animal survived longer than the experiment, the survival days was entered as the duration of the experiment. The survival index was calculated according to the following formula: Survival index=(mean survival days of treatment group−mean survival days of control group)÷mean survival days of control group 6. […]

For “IL-2: recombinant human interleukin-2, Shanghai Huaxin Biotech Inc.; positive control immunostimulant”, the “anti-SRBC antibody formation (sample serum index)” value (anti-SRBC antibody; peptide 0.5 μg/kg/day i.p. 15 days) was 71 ± 11* Unit, the “anti-SRBC antibody formation (sample serum index)” value (anti-SRBC antibody; peptide 5 μg/kg/day i.p. 15 days) was 71 ± 11* Unit and the “anti-SRBC antibody formation (sample serum index)” value (anti-SRBC antibody; peptide 50 μg/kg/day i.p. 15 days) was 71 ± 11* Unit. The “anti-SRBC antibody formation (sample serum index)” value (anti-SRBC antibody; peptide 500 μg/kg/day i.p. 15 days) was 71 ± 11* Unit, the Stimulation index (T lymphocyte) was 1.46 ± 0.21 and the Survival days (L1210 leukemia) was 32.0 ± 13.7 days. It also gave a Survival index (L1210 leukemia; versus saline group) of 92.3%.

Marks after values point to notes of the source that are not given here.
